# Laboratory results: patent US7244767B2 (priority 1998, dated 2007)
# The chains behind the UniProt entries cited, without tags or fusion partners.
# UniProt P47746, whole entry: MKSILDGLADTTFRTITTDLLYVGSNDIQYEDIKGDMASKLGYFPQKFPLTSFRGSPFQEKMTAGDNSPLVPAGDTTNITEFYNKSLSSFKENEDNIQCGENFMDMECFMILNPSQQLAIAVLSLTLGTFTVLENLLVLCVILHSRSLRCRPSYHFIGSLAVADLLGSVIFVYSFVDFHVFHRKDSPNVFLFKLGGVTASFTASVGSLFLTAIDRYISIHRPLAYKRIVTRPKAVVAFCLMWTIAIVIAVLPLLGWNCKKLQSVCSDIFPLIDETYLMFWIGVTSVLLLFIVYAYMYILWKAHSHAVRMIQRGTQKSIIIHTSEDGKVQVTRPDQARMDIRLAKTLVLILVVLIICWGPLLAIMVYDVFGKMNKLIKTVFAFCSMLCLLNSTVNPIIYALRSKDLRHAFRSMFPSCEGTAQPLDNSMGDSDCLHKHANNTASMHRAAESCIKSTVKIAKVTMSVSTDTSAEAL
# Legend:
# [1] = target: T1, receptor CB1 (Mus musculus, UniProt P47746); test: Effect on stimulation of cyclic AMP by forskolin in N18TG2 cells; type: cell-based; conditions: 1 μM forskolin, 10 min at 37° C.; read-out: IC50, c-AMP stimulated by forskolin, N18TG2 cells
# T1 construct: endogenous in cells; host or cells: N18TG2 mouse neuroblastoma cells
# Experimental: The tests were carried out with the aim of checking whether or not the binding of the N-AVAM molecules to the receptor CB1 had any functional significance. The c-AMP assays were carried out on confluent N18TG2 cells in 6-well petri dishes (Falcon); the cells were stimulated for 10 min at 37° C. with 1 μM forskolin (Fluka) in 400 μl of serum-free medium containing 20 mM Hepes, 0.1 mg/ml of BSA and 0.1 mM 1-methyl-3-isobutylxanthine (Sigma) and either ethanol or anandamide or N-AVAM molecules plus SR141716A. After incubation, the cells were extracted and the c-AMP levels were evaluated using a suitable kit from Amersham according to the manufacturer's procedure. The data are expressed as IC50, in μM.
# [2] = target: T2, cannabinoid receptor CB1 (Mus musculus, UniProt P47746); test: Binding to cannabinoid receptor CB1, displacement of [3H]SR141716A on N18TG2 cell membranes; conditions: 300 pM [3H]SR141716A, 90 min at 30° C., read-out: Ki, CB1 receptor, N18TG2 + cells, [3H]SR141716A ligand
# T2 construct: endogenous in cells; host or cells: N18TG2 mouse neuroblastoma cells
# Experimental: Mouse neuroblastoma cells N18TG2 which selectively express the cannabinoid receptor CB1 and rat leukaemia basophil cells RBL-2H3+ which selectively express the cannabinoid receptor CB2 were used. […] The binding tests were carried out with membranes of the said cells resuspended in 50 mM pH 7.0 Tris buffer; 2.5 mM mgCl2; 0.8 mM EDTA; 0.05% bovine serum albumin (BSA); 0.01% ethanol and in the presence of 100 μM phenylmethylsulphonyl fluoride (PMSF; sigma) using 300 pM of [^3H]SR141716A and [^3H]WIN55,212-2, respectively, as ligand.
# The membranes were incubated for 90 min at 30° C., filtered on glass microfibre filters (GFC-Whatman) and the radioactivity was measured by liquid scintillation. The specific binding was calculated using either 10 μM SR141716A or 10 μM HU-210 (obtained from Prof. R. Mechoulam, Hebrew University Jerusalem). The Ki values were calculated using the Chang-Prusoff equation and expressed as concentration μM.
smiles,measurement,setting,value
"CCCCC/C=C\C/C=C\C/C=C\C/C=C\CCCC(=O)NCCO [Anandamide, reference compound]",IC50,[1],3.2 µM
same,Ki,[2],1.91 ± 0.31 µM
